Test results: PubChem BioAssay AID1224905 (ICCB-Longwood Screening Facility, Harvard Medical School, 2016)
The campaign covered roughly 210,000 compounds. About 880 (0.42%) were called active. Only a selection was taken, and actives are over-represented in it overall. Unmarked numbers belong to inactive results.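 How the source made its calls: active means replicate mean at 85% of control or lower with very high polarization wells dropped (limit read from the data); inactive means the rest.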

Protein sequences, listed by entry. Tags and fused reporters are not part of them.
UniProt P08753, whole entry, looked up: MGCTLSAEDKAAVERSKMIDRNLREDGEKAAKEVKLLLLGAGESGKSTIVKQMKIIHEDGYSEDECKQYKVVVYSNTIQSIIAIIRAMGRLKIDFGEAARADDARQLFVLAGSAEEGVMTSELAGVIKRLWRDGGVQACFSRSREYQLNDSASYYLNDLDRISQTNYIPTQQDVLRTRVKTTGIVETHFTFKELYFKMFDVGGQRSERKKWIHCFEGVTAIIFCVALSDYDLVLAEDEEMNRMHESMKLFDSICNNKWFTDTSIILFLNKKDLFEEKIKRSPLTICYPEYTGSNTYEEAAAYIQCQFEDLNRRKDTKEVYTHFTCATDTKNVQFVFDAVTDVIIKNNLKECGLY

target: Guanine nucleotide-binding protein G(i) subunit alpha-3 (Rattus norvegicus) (UniProt P08753); test: disruptors of GIV-Galphai3 protein-protein interaction – biochemical, fluorescence polarization, FITC-GIV GBA peptide, rat Galphai3, primary screen (AID 1224905); details: Galpha-i3/FITC-GIV peptide fluorescence polarization, 90 min; active compounds read low; scaled: aluminum fluoride 0%, vehicle 100%;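 further: lower values mean more displacement of the GIV peptide from Galpha-i3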

SMILES	percent of control (FP)
O=C(NCc1ccco1)c1cc2nc(-c3ccc(Cl)c(Cl)c3)cc(C(F)(F)F)n2n1	101%
Cn1c(=O)n(C)c2cc(N3CCOCC3)c(NS(=O)(=O)c3ccc4c(c3)CCCC4)cc21	103%
O=C(O)c1cc(NS(=O)(=O)c2ccc3c(c2)CCCC3)cnc1N1CCOCC1	80.8% (active)
O=C(O)c1cc(NS(=O)(=O)c2cc(F)ccc2F)cnc1N1CCC(N2CCCCC2)CC1	93.7%
O=C(CSc1nnc(C2COc3ccccc3O2)n1-c1ccccc1)c1cccc([N+](=O)[O-])c1 (stereo not drawn)	99.2%
Cc1cc(Br)ccc1N1C(=O)NC(=O)/C(=C/c2cn(CC(=O)N3CCOCC3)c3ccccc23)C1=O	103%
COCCNC(=O)Cn1cc(/C=C2\C(=O)NC(=O)N(C3CCCCC3)C2=O)c2ccccc21	-38.3% (active)
COc1ccccc1N1C(=O)NC(=O)/C(=C/c2cn(C(C)=O)c3ccccc23)C1=O	118%
NC(=O)c1nsc2c(=O)n(CC(=O)NCc3ccco3)cnc12	95.4%
CCOC(=O)c1c(NC(=S)NC(=O)c2ccccc2)sc2c1CC(C)(CC)OC2 (stereo not drawn)	107%
Cc1cc(C)c2[nH]c(=O)c(NC(N)=S)nc2c1	109%
Cc1c(C(=O)NCC2COc3ccccc3O2)sc2ncnc(N3CCCCC3C)c12 (stereo not drawn)	103%
COc1ccccc1N(Cc1nc2nc(C)cc(C)n2n1)C(=O)C(C)(C)C	105%
COc1cc(-c2noc(-c3cc(-c4cc(C)ccc4C)n[nH]3)n2)ccc1OC(C)C	109%
O=C(NCc1ccc2c(c1)OCO2)C1CCCN(S(=O)(=O)N2CCOCC2)C1 (stereo not drawn)	105%
CN1C(=O)/C(=C/c2ccco2)SC1=Nc1cccc(C(=O)O)c1	103%
O=C(O)CCC(C(=O)O)N1C(=O)/C(=C\c2ccco2)SC1=S (stereo not drawn)	79.9% (active)
CN1CCN(NC(=O)CCN2C(=O)/C(=C\c3ccco3)SC2=S)CC1	106%
COc1ccc(S(=O)(=O)N2CCC(NC(=O)NCc3ccc(C)cc3)CC2)cc1	98.6%
O=C(NCCCN1CCC(N2CCCCC2)CC1)c1nnc(C(=O)Nc2ccccc2)s1	101%
O=C(CCc1ccccc1)N1CCN(C(=O)c2cc3cc(Br)ccc3[nH]2)CC1	108%
CN1C=C/C(=C\C=C2/C=Nc3ccccc32)c2ccccc21	-76.3% (active)
CCCCN(CCCNC(=O)Nc1cn(CC(C)C)c(=O)c2ccccc12)Cc1ccccc1	98.7%
COc1ccc(S(=O)(=O)Nc2cc(C(=O)O)cnc2N2CCC(Cc3ccccc3)CC2)cc1	102%
COC(=O)COc1ccc(/C=C2\C(=O)NC(=S)N(c3ccc(Br)cc3)C2=O)cc1OC	104%
Cc1ccc(N2C(=O)/C(=C/c3ccc(OCC(=O)O)c(Br)c3)C(=O)NC2=S)cc1	82.1% (active)
COc1ccc(N2C(=O)/C(=C/c3cc(Cl)c(OCC(=O)O)c(Cl)c3)C(=O)NC2=S)cc1	94.6%

SMILES	percent of control (FP)
Cc1oc(C2CCN(C(=O)Cc3ccsc3)CC2)nc1C(=O)N1CCCC1	99.3%
CC(C)CC(C(=O)Nc1ccc(Cl)cc1)N1C(=O)c2ccccc2C1=O (stereo not drawn)	108%
CCOC(=O)c1c(NC(=O)C(C)Sc2nnc(CNC(=O)c3cccs3)n2C2CCCCC2)sc2c1CCCC2 (stereo not drawn)	109%
CC[n+]1c(/C=C/C=C2\N(C)c3ccccc3C2(C)C)n(-c2ccccc2)c2ccc(Cl)cc21	-32.2% (active)
CC[n+]1c(C)n(-c2ccccc2)c2ccc(N)cc21	101%
COc1ccccc1CNC(=O)C1CCCN1c1nn2c(=O)cc(C)nc2s1 (stereo not drawn)	96.8%
O=C(/C=C/c1ccccc1)Nc1cc(C(=O)N2CCc3ccccc3C2)ccc1N1CC2CC(C1)c1cccc(=O)n1C2 (stereo not drawn)	108%
CCN(CC)c1cc(NC2CCCCC2)c2c3c(onc13)-c1ccccc1C2=O	-7.19% (active)
CCNc1cc(Nc2ccccc2)c2c3c(onc13)-c1ccccc1C2=O	104%
CCOC(=O)N1CCN(c2cc(Nc3c(C)cc(C)cc3C)c3c4c(onc24)-c2ccccc2C3=O)CC1	140%
CC1CCN(S(=O)(=O)c2ccc3nn(CC(=O)OC(C)C)c(=O)n3c2)CC1	103%
COc1ccccc1-c1c(C(F)(F)F)oc2c(CN3CCN(C)CC3)c(O)ccc2c1=O	102%
Cc1nn(CCC(=O)NC2CCCC2)c(=O)c2nn(-c3ccccc3)c(C)c12	98.5%
CC(=O)Nc1ccc(NS(=O)(=O)c2cc(S(=O)(=O)Nc3ccc(NC(C)=O)cc3)c3cccc4c3c2NC4=O)cc1	108%
CC(C)c1ccc(NC(=O)c2ccc3c(O)c(S(=O)(=O)c4ccccc4)c(=O)[nH]c3c2)cc1	98.9%
CC(=O)Nc1ccc(Nc2c3c4c(cccc4[nH]c2=O)C(=O)c2ccccc2-3)cc1	60.9% (active)
CCC(C)OC(=O)C1=C(C)NC2=C(C(=O)CC(c3ccc(OC)cc3)C2)C1c1cc2c(cc1[N+](=O)[O-])OCO2 (stereo not drawn)	103%
CCCCc1nnc2sc(-c3cccc(N(C)C)c3)nn12	97.3%
Cc1nn(C)c(C)c1CCN(C)C(=O)Nc1ccc(Br)cc1F	105%
COc1ccc(-n2ccc(=O)c(-c3nc(-c4ccc(F)c(Cl)c4)no3)n2)cc1	102%
Fc1cccc(CNC2=NCCNC23CCCCCC3)c1	112%
COc1ccc(N2CCN(C(C)=C3C(=O)c4ccccc4C3=O)CC2)cc1	97.8%
Cc1cc(N2CCOCC2)ccc1C=C1C(=O)c2ccccc2C1=O	123%
COC1=C(N2CCOCC2)C(=O)c2ccccc2C1=O	81.8% (active)
Nc1nc(=O)n(C2OC(CO)C(O)C2O)cc1Br (stereo not drawn)	107%
CCN1CCN(Cc2c(O)ccc3c(=O)c(Oc4ccccc4Br)c(C(F)(F)F)oc23)CC1	96.7%
